What all share (assay): In vitro kinase activity assay (LANCE TR-FRET)
Holding throughout (assay type): biochemical

Chains of the proteins cited; added tags and fusions are not shown. Residues count along the entry.
UniProt P04629, 33-796: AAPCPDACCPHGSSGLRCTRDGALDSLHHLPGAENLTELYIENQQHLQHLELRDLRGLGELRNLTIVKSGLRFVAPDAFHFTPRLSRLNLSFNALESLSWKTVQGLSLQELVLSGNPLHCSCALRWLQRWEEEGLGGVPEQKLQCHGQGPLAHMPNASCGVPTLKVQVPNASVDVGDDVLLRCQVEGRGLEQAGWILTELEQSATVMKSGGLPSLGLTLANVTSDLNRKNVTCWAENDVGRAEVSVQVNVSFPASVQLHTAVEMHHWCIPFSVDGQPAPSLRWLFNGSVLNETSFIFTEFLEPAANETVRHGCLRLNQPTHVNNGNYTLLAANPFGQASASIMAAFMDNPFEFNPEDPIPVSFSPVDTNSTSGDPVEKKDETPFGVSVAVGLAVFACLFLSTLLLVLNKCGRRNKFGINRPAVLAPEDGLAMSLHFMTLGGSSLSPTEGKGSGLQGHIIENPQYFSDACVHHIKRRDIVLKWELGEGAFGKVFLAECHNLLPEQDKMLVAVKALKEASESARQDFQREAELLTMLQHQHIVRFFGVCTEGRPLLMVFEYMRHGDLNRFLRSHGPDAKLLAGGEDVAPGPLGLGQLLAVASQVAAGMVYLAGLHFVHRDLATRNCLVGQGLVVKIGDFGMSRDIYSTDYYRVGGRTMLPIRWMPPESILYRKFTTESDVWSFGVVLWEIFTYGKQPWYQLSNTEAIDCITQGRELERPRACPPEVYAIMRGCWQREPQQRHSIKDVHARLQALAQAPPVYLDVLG
UniProt P06213, 28-1382: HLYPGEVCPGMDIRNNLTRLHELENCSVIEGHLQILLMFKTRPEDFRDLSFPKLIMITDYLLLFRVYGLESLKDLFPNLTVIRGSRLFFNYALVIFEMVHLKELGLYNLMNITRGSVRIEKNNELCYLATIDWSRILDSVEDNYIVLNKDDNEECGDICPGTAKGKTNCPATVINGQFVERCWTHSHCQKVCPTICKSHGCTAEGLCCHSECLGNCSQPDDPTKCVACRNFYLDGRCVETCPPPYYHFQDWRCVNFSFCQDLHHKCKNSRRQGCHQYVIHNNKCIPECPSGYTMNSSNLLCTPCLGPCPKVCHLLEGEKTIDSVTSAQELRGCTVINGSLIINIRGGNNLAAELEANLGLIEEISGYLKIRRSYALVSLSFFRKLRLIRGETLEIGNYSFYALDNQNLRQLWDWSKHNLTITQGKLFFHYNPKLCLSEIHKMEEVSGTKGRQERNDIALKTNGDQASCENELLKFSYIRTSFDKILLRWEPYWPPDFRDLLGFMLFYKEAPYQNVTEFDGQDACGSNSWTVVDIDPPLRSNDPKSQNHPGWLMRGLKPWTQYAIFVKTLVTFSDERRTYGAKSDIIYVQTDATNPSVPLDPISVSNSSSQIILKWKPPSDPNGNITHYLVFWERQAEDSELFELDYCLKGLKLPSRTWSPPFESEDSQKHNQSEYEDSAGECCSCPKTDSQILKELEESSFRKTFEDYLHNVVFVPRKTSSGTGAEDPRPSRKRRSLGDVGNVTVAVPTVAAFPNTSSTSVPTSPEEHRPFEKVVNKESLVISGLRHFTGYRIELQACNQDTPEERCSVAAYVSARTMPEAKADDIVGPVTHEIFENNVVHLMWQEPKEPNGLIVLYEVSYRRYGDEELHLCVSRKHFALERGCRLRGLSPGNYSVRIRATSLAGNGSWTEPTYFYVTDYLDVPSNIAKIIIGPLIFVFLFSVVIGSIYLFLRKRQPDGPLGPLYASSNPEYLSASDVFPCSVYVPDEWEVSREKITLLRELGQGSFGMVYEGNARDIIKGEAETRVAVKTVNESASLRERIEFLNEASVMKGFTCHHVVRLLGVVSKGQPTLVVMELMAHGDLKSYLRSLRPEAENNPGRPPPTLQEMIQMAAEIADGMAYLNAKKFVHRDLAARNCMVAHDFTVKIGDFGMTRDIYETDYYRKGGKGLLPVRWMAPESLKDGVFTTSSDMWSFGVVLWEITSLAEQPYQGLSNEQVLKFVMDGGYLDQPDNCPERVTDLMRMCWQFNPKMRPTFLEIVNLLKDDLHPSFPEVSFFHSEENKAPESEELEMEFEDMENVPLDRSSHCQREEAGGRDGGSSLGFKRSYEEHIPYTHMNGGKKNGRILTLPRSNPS
UniProt Q9UM73, 19-1620: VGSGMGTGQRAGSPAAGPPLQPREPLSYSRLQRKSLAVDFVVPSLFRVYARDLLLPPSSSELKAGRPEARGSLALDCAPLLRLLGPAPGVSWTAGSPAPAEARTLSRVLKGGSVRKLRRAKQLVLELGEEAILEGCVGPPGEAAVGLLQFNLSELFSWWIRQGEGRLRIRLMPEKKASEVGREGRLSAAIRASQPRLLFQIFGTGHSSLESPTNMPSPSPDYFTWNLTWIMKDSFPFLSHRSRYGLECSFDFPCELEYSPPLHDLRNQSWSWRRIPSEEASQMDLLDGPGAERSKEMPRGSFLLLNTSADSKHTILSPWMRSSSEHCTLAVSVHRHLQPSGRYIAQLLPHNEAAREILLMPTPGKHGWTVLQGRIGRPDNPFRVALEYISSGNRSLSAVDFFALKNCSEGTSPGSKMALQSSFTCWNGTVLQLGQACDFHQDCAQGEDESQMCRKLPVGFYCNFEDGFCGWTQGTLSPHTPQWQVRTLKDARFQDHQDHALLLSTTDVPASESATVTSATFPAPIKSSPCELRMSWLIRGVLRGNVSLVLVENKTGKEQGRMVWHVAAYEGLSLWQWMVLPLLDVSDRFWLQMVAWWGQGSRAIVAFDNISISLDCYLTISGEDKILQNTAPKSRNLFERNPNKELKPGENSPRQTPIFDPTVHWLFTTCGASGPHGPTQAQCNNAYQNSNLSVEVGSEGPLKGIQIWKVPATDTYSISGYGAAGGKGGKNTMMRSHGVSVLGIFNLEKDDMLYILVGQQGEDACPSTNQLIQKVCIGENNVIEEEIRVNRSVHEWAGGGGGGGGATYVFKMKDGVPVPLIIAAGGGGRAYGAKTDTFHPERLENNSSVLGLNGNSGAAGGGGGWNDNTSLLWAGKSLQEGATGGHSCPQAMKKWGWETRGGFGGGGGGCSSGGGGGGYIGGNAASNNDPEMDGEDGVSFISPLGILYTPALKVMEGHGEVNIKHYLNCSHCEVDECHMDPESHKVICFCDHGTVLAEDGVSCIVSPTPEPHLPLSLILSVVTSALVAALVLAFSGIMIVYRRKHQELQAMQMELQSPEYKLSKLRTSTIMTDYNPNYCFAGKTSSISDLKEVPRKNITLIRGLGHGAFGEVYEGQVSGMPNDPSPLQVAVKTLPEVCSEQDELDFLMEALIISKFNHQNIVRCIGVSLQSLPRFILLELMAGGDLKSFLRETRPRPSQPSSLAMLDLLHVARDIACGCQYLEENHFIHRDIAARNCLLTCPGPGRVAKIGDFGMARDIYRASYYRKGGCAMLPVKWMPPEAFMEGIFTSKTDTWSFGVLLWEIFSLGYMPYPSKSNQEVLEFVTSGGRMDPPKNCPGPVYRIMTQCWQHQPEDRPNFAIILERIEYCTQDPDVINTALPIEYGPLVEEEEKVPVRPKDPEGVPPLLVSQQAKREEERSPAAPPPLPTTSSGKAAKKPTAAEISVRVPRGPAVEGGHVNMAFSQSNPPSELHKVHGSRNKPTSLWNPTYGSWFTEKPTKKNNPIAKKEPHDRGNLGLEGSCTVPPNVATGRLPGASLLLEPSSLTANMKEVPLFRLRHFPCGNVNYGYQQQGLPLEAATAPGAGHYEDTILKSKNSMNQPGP

The target in one test is TrkA (Homo sapiens (Human), UniProt P04629). As to conditions: TrKA IC50(μM).
The next test concerns the target INSR (Homo sapiens (Human), UniProt P06213). As to conditions: read-out: IRK IC50.
In a further test the target is ALK (Homo sapiens (Human), UniProt Q9UM73). The settings on record: read-out: ALK IC50.

The molecule `C[C@@H](Cc1c(F)c(F)cc(F)c1F)Nc1cc[nH]c(=O)c1-c1nc2cc3c(cc2[nH]1)C(=O)N(CCN(C)C)C3` [Compound 1, (S)-6-(2-(Dimethylamino)ethyl)-2-(2-oxo-4-((1-(2,3,5,6-tetrafluorophenyl)propan-2-yl)amino)-1,2-dihydropyridin-3-yl)-6,7-dihydroimidazo[4,5-f]isoindol-5(3H)-one] showed an IC50 on TrkA of 0.001 µM. Consider Staurosporine [reference compound], for which the results for the IC50 at INSR and on ALK were 42 nM and 2 nM, respectively.
